Values of other authors, collected in publication PMC10772121.

The chains behind the UniProt entries cited, without tags or fusion partners. Residues count along the entry.
UniProt P43628, 22-245: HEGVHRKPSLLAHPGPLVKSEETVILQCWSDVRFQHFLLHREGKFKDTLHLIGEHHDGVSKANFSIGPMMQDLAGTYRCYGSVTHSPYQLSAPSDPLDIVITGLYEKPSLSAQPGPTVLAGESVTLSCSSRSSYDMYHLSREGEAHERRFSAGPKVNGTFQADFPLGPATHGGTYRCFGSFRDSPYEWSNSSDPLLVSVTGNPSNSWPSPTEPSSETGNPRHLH
UniProt P43626, 22-245: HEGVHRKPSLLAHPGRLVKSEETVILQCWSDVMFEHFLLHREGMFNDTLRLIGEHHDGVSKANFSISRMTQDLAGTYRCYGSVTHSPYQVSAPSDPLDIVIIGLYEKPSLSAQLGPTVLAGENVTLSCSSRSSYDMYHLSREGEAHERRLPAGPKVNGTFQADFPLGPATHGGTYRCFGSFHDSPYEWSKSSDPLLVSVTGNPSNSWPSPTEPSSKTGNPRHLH

Tests used:
KIR2DL3 (Homo sapiens) [1] = target: KIR2DL3 (Homo sapiens) (UniProt P43628); assay: ELISA
KIR2DL1 (Homo sapiens) [2] = target: KIR2DL1 (Homo sapiens) (UniProt P43626); assay: ELISA
KIR2DL3 (Homo sapiens) [3] = target: KIR2DL3 (Homo sapiens) (UniProt P43628); assay: SPR
KIR2DL1 (Homo sapiens) [4] = target: KIR2DL1 (Homo sapiens) (UniProt P43626); assay: SPR

Lirilumab
Kd (KIR2DL3 (Homo sapiens) [1]): 0.02 nM
Kd (KIR2DL1 (Homo sapiens) [2]): 0.05 nM
Kd (KIR2DL3 (Homo sapiens) [3]): 3.5 nM
Kd (KIR2DL1 (Homo sapiens) [4]): 10.3 nM
